The chains behind the UniProt entries cited, without tags or fusion partners.
UniProt P32871, whole entry: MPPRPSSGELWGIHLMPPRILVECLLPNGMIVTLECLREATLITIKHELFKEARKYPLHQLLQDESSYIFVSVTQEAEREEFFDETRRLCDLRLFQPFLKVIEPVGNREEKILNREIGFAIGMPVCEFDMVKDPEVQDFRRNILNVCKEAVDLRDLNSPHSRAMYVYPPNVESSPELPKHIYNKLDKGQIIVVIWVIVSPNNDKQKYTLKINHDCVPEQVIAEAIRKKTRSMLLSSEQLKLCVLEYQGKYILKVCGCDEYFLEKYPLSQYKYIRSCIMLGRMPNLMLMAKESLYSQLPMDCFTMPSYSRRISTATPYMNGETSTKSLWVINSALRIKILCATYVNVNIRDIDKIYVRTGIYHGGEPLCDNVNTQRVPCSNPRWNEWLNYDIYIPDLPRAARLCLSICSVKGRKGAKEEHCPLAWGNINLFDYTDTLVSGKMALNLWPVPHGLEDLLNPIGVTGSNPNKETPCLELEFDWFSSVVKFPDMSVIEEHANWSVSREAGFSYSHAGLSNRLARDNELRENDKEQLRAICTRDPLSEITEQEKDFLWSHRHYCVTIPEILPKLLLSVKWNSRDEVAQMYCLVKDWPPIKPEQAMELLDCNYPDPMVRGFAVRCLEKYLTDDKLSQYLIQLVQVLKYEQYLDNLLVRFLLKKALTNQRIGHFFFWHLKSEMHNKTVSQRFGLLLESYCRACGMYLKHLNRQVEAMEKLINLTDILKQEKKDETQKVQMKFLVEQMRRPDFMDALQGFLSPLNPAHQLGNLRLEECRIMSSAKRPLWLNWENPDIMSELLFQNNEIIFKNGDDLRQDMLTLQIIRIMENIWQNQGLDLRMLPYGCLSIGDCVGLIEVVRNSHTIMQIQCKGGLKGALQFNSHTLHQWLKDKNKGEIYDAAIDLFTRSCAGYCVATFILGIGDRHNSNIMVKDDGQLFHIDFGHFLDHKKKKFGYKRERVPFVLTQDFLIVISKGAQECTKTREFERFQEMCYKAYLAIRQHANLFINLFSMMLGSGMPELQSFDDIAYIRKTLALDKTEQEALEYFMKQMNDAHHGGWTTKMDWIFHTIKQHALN

In patent publication EP1277754B1, “IMIDAZOPYRIDINE DERIVATIVES” (YAMANOUCHI PHARMACEUTICAL CO. LTD., priority 2000, dated 2001):

Biological target: bovine p110α (Bos taurus, UniProt P32871)
Settings: potency relative to LY294002
Method: Inhibition was determined using enzyme (bovine p110α) prepared in the baculovirus expression system. […] The resulting mixture was stirred and then centrifuged. […] The radioactivity was measured using Cerenkov light.

`Cc1ccc([N+](=O)[O-])cc1S(=O)(=O)n1ccc(-c2c(C)nc3ccc(Br)cn23)n1` [Compound 6, 3-(6-Bromo-2-methylimidazo[1,2-a]pyridin-3-yl)-1H-pyrazol-1-yl 2-methyl-5-nitrophenyl sulfone] was tested, and the “inhibits PI3K ... times as strong as known PI3K inhibitor LY294002” value was “more than 10 times”.
